{
  "source": "paper PMC4154654",
  "about": "(PLoS Neglected Tropical Diseases, 2014)",
  "test_system": "T84 cell monolayers",
  "assay": "Barrier function assay (FITC-dextran flux) in T84 cell monolayers",
  "conditions": "24-h treatment, 20 µM and 200 µM",
  "data": [
    {"smiles": "O=C(O)Cc1ccccc1Nc1c(Cl)cccc1Cl", "note": "[diclofenac]", "values": [
      {"measurement": "effect on FITC-dextran flux across T84 cell monolayers", "value": "did not change"}
    ]}
  ]
}
